Earlier results as cited in patent US7235367B2, “Method using crystal structure of estrogen receptor-β complex” (Genetics Institute, LLC., priority 2000, dated 2007).

Amino acid sequences for entries named in this document (tags omitted).
UniProt P03372, whole entry: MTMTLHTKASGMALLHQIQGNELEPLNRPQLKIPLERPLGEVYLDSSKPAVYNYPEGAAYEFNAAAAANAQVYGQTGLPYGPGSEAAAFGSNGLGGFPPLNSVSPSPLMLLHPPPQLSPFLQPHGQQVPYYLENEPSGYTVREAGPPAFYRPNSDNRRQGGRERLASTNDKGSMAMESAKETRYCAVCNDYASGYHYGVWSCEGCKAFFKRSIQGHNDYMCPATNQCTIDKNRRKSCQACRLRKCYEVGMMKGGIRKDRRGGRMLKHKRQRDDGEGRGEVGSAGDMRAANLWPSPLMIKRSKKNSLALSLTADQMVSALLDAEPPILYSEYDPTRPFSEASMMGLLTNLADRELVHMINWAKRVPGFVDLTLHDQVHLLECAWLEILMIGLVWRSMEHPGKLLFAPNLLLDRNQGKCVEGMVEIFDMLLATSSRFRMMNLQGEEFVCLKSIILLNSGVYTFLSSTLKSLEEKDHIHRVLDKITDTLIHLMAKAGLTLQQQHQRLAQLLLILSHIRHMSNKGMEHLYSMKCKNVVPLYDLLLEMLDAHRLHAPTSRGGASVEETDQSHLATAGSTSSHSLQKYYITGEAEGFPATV

Biological target: ER-α (Homo sapiens, UniProt P03372)
Conditions: co-activator binding, ER-α relative to ER-β

Substance: SRC-3: Steroid receptor coactivator-3, co-activator protein of estrogen receptors
- fold tighter binding to ER-α than to ER-β: approximately 700 fold
